Among the data in ChEMBL document CHEMBL5046225, “Discovery and Optimization of Orally Bioavailable Phthalazone and Cinnolone Carboxylic Acid Derivatives as S1P2 Antagonists against Fibrotic Diseases” (J Med Chem, 2021) are IC50 values, retold here.

By UniProt entry, the sequences of proteins in these tests, tags left out. Where a name states a change or a piece, a line headed by the entry shows the natural chain unless it says otherwise.
UniProt Q12809: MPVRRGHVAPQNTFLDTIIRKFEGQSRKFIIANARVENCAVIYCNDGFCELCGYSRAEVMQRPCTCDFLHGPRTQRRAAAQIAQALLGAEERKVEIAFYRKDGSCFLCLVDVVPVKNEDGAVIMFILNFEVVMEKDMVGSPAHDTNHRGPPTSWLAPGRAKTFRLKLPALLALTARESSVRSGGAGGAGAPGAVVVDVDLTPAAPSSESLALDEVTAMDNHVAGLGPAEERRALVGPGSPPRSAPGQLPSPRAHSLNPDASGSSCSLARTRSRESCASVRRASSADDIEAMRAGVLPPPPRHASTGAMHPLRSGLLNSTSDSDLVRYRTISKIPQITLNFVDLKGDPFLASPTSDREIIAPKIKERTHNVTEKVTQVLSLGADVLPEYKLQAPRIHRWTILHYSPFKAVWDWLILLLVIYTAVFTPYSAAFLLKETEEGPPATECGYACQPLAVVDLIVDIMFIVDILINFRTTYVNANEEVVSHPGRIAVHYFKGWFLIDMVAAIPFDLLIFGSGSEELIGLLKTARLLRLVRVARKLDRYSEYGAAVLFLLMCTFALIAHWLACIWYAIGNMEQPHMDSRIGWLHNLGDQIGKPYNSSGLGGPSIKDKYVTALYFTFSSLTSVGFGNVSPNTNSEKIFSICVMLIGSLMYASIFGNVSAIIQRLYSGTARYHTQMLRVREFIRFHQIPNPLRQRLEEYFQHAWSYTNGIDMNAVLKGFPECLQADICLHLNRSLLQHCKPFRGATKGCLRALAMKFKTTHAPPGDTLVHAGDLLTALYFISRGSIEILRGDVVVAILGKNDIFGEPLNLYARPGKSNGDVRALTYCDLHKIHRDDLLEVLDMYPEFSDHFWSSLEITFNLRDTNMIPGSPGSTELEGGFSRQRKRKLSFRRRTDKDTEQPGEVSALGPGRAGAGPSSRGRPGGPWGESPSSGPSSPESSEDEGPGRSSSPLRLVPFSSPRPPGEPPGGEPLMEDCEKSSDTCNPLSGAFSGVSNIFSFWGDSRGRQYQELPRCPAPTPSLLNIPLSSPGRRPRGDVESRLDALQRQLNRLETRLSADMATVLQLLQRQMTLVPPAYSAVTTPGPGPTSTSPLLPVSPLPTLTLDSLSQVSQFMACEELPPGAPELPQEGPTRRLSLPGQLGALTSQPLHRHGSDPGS

For the assay, the target named is Voltage-gated inwardly rectifying potassium channel KCNH2 (Homo sapiens, UniProt Q12809). Nature of the assay: Inhibition of human ERG by patch clamp method.

On to `C[C@H](C(=O)O)n1nc(Cn2cc3cc(OCC4CC4)c(Cl)cc3n2)c2ccccc2c1=O`, for which half-maximal inhibition (IC50) was put at 35.8 µM.
